# Laboratory results as given in US20070004791A1, “3,6-disubstituted azabicyclo {3.1.0} hexane derivatives useful as muscarnic receptor antagonists” (priority 2002, published 2007).
# Amino acid sequences for entries named in this document (tags omitted). A change or cut given only in a name is not applied to a line headed by its entry.
# UniProt P08483: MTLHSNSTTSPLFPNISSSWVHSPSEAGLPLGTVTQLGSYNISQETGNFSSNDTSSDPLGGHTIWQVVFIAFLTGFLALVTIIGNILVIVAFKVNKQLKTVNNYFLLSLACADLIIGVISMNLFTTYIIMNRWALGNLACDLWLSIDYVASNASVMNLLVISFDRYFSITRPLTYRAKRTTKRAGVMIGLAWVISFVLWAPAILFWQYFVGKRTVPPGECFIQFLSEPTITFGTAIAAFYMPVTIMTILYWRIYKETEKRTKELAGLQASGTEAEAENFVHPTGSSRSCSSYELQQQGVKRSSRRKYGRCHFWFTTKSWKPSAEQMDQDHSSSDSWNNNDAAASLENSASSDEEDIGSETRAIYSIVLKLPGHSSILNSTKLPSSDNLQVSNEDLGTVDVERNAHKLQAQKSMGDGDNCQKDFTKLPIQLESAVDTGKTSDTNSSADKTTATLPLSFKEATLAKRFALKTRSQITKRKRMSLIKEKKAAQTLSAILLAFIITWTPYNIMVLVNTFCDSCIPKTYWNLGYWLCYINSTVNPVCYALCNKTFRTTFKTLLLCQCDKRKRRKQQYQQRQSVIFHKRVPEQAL
# UniProt P10980: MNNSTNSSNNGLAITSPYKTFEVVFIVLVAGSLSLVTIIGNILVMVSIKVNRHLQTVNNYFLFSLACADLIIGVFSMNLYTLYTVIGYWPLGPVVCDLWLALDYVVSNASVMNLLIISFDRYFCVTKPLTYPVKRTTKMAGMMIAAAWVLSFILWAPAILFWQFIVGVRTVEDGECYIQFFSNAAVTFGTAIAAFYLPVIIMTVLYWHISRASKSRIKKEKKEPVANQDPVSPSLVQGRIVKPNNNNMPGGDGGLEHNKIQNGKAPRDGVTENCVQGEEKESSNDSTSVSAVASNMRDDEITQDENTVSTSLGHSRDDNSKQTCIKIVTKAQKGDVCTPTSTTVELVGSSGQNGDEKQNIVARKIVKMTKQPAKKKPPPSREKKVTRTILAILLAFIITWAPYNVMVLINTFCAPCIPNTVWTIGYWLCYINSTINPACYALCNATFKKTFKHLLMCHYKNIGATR
# Key:
# [1] = target: M3 muscarinic receptor (Rattus norvegicus, UniProt P08483); conditions: for Receptor Binding Assay M3 pKi: rat submandibular gland, [3H]NMS
# [2] = target: M2 muscarinic receptor (Rattus norvegicus, UniProt P10980); assay: Radioligand binding assay, [3H]-N-methylscopolamine, rat heart membranes; conditions: [3H]NMS
# [3] = test system: isolated rat bladder
Compound,Receptor Binding Assay M3 pKi [1],Receptor Binding Assay M2 pKi [2],Kb [3] [nM],Receptor Binding Assay Selectivity M2/M3 ([1]; ratio M2/M3 from binding)
"(2S)-(−)-(1α,5α,6α)-N-[3-benzyl-3-azabicyclo[3.1.0]hexyl-6(aminomethyl)-yl]-2-hydroxy-2-cyclopentyl-2-phenylacetamide. L(+)-tartrate salt",7.65,6.21,–,–
O=C(OC[C@@H]1[C@H]2CN(Cc3ccccc3)C[C@@H]12)[C@](O)(c1ccccc1)C1CCCCC1,–,–,1.62,–
"(2R)-(+)-(1α,5α,6α)-N-[3-benzyl-3-azabicyclo[3.1.0]hexyl-6-(aminomethyl)-yl]-2-hydroxy-2-cyclopentyl-2-phenylacetamide. L(+)-tartrate salt",8.46,7.35,–,13
